Screens: PubChem BioAssay, Broad Institute
CDK5 p35 inh – CDK5/p35 (human) kinase inhibition | Recombinant CDK5/p35, ADP-Glo luminescence, 60 min | inhibition, % at 10 µM | 0.01% of 330,000 active | AID 488839;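 active means highest replicate inhibition of at least 50% and at least 75% of replicates reaching 50%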;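 further: plate controls were DMSO neutral control for no effect and GW8510 at 10 µM for full effect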
Rtt109 HAT inh – inhibitors of Candida albicans Rtt109/Vps75 histone acetyltransferase; Q5AAJ8; purified Rtt109/Vps75, ThioGlo CoA-SH fluorescence, 4 h; AID 540336; 0.16% of 330,000 active; inhibition, % at 34.9 µM;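 active means inhibition of at least 50% in every replicate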
Cneo AK release – causes C. neoformans cell lysis; AID 651654; 0.2% of 360,000 active; lysis activity, % at 15 µM; adenylate kinase release luminescence, 4 h; normalised: neutral wells 0, clomiphene wells 100;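 active means mean lysis activity across replicates of at least 80%, whatever share of replicates individually reach that level; inactive means mean lysis activity below 80%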
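Assay system: Cryptococcus neoformans yeast cells / Dosing: single-point compound dose / Timing: 4 h at 37 °C static, read 1 h later / Measured by: luminescence of released adenylate kinase using an AK detection reagent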
C2C12 statin – suppression of simvastatin myotoxicity | C2C12 myotubes + simvastatin, ATP luminescence, 48 h; scaled: DMSO 0, geranylgeraniol control 100 | 0.78% of 330,000 active | rescue of ATP level, % at 7.49 µM | AID 602340;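 active means mean ATP rescue above about 67%, or every replicate alone reaching that limit, limit read from the data, passing the limit was not always enough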;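 further: myotubes were challenged with 10 µM simvastatin during compound exposure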
Yeast UUG start-1 – alters start codon recognition fidelity in yeast. S. cerevisiae UUG-firefly luciferase reporter, luminescence/redox ratio. AID 602363. activity score, % at 18.7 µM. hit rate 0.13% among 350,000;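 active = replicate mean at a twofold rise or more, about +100% in these data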;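 note: firefly luciferase made from a UUG start codon reports start codon fidelity; reporter light over untreated wells divided by growth signal over untreated wells; some hits fall short of that in this replicate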
Yeast UUG start-2 – yeast start codon fidelity modulation; shares compounds with Yeast UUG start-1; S. cerevisiae UUG-start firefly luciferase, luminescence, 4 h; 100% means double the DMSO signal; activation, % at 38 µM; 540 tested, under 10 active;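 active means signal increase whose fitted curve reaches an absolute level of 40 at a concentration under 10 µM; inactive means activity opposite to the expected increase, or the rest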
* hit, by the source's call; i = inactive; · = no result; ! = not active in a repeat. This is a sample that favours compounds with a hit; in the whole collection about 1% have one here.

| # | molecule | CDK5 p35 inh | Rtt109 HAT inh | Cneo AK release |
| --- | --- | --- | --- | --- |
| 1 | CO[C@@H]1CN(C)C(=O)c2ccc(NS(=O)(=O)c3cccc(Cl)c3)cc2OC[C@H](C)NC[C@@H]1C | · | · | 1.2 |
| 2 | COc1ccc(NC(=O)Nc2ccc3c(c2)[C@@H]2C[C@H](CC(=O)NCCc4ccccc4)O[C@@H](CO)[C@@H]2O3)cc1 | · | · | 4.4 |
| 3 | COc1cccc(C2C(C#N)=C(N)Oc3cc(C)n(Cc4ccco4)c(=O)c32)c1 (configuration not stated) | 1.2 | 4.1 | 6.9 |
| 4 | COc1ccc(C2C(C#N)=C(N)Oc3cc(C)n(Cc4ccco4)c(=O)c32)cc1 (configuration not stated) | 2.7 | 6.8 | 0.5 |
| 5 | Cc1ccc(S(=O)(=O)N(C)C[C@@H]2OCCCC[C@H](C)Oc3ccc(NS(=O)(=O)c4c(C)noc4C)cc3C(=O)N([C@@H](C)CO)C[C@@H]2C)cc1 | · | · | -2.5 |
| 6 | C[C@@H](NC(=O)C[C@@H]1CC[C@@H](NC(=O)Cc2ccccn2)[C@H](CO)O1)c1ccccc1 | · | · | 0.0 |
| 7 | O=C(CCn1c(SCC(=O)NCc2ccco2)nc2ccccc2c1=O)NCCc1ccccc1 | 1.4 | 0.3 | -0.5 |
| 8 | COCCCn1c(SCC(=O)NCc2ccco2)nc2sc3c(c2c1=O)CCC3 | -1.0 | 0.0 | 2.1 |

| # | C2C12 statin | Yeast UUG start-1 | Yeast UUG start-2 |
| --- | --- | --- | --- |
| 1 | 0.7 | · | · |
| 2 | -4.1 | · | · |
| 3 | 142.3* | -12.3 | · |
| 4 | -7.9 | -5.8 | · |
| 5 | · | -19.2 | · |
| 6 | -11.8 | -12.5 | · |
| 7 | 102.3* | -14.8 | · |
| 8 | 132.3* | -6.1 | · |

Part of the list above, limited to CDK5 p35 inh, Cneo AK release and Yeast UUG start-2.
no.	Molecule	CDK5 p35 inh	Cneo AK release	Yeast UUG start-2
6	C[C@@H](NC(=O)C[C@@H]1CC[C@@H](NC(=O)Cc2ccccn2)[C@H](CO)O1)c1ccccc1	·	0.0	·
7	O=C(CCn1c(SCC(=O)NCc2ccco2)nc2ccccc2c1=O)NCCc1ccccc1	1.4	-0.5	·

Following part
| # | molecule | CDK5 p35 inh | Rtt109 HAT inh | Cneo AK release |
| --- | --- | --- | --- | --- |
| 9 | [N-]=[N+]=NCCNC(=O)Nc1ccccc1 | · | · | -6.9 |
| 10 | Cn1c(=O)c2c(nc(SCCN3CCOCC3)n2Cc2ccccc2Cl)n(C)c1=O | -0.4 | -5.5 | 0.9 |
| 11 | Cc1nnc(Sc2nc3c(c(=O)n(C)c(=O)n3C)n2Cc2ccccc2Cl)s1 | -1.3 | 2.2 | 1.4 |
| 12 | CC(C)NC(=O)Nc1ccc2c(c1)CC(=O)N([C@H](C)CO)C[C@H](C)[C@H](CN(C)S(=O)(=O)c1ccc(F)cc1)O2 | · | · | 3.3 |
| 13 | Cn1c(=O)c2c(ncn2CC(=O)OCC(=O)NC2CCCc3ccccc32)n(C)c1=O (configuration not stated) | 0.5 | -6.9 | -0.5 |
| 14 | C[C@]12CC[C@@H]3c4ccc(O)cc4CC[C@H]3[C@@H]1CC[C@@H]2O | 0.3 | 9.5 | -1.9 |
| 15 | C[C@]12CC[C@@H]3c4cc(O)c(O)cc4CC[C@H]3[C@@H]1CC[C@@H]2O | -0.4 | 122.5* | -0.6 |
| 16 | COc1ccc(S(=O)(=O)Nc2cccc3c2O[C@@H](CN(C)S(=O)(=O)c2ccc(Cl)cc2)[C@@H](C)CN([C@@H](C)CO)C3=O)cc1 | · | · | 0.2 |

| # | C2C12 statin | Yeast UUG start-1 | Yeast UUG start-2 |
| --- | --- | --- | --- |
| 9 | · | · | · |
| 10 | 7.9 | 12.4 | · |
| 11 | 118.0* | 14.9 | · |
| 12 | -12.8 | 9.2 | · |
| 13 | 88.2* | -9.6 | · |
| 14 | 2.1 | -3.8 | · |
| 15 | -24.8 | -8.9 | · |
| 16 | -55.5 | -7.8 | · |

Values by screen from above.
Entries 9–16 in Cneo AK release, in turn: -6.9, 0.9, 1.4, 3.3, -0.5, -1.9, -0.6, 0.2
Entries 9–16 in C2C12 statin, in turn: ·, 7.9, 118.0*, -12.8, 88.2*, 2.1, -24.8, -55.5

Following part.
| # | molecule | CDK5 p35 inh | Rtt109 HAT inh | Cneo AK release |
| --- | --- | --- | --- | --- |
| 17 | C[C@H]1CN([C@@H](C)CO)C(=O)c2cccc(NS(=O)(=O)c3ccc(Cl)cc3)c2O[C@@H]1CN(C)CC1CC1 | · | · | 89.2* |
| 18 | C[C@@H]1CN([C@@H](C)CO)C(=O)c2cccc(NS(C)(=O)=O)c2O[C@H]1CN(C)CC1CCCCC1 | 0.0 | 2.7 | 6.9 |
| 19 | COc1ccc(S(=O)(=O)Nc2cccc3c2O[C@H](CN(C)S(=O)(=O)c2ccc(Cl)cc2)[C@H](C)CN([C@@H](C)CO)C3=O)cc1 | · | · | -3.0 |
| 20 | C[C@H](CO)N1C[C@H](C)[C@H](CN(C)CC2CC2)Oc2c(NS(=O)(=O)c3ccc(Cl)cc3)cccc2C1=O | · | · | -1.0 |
| 21 | CC(C)NC(=O)N(C)C[C@H]1Oc2c(NS(=O)(=O)c3ccc(Cl)cc3)cccc2C(=O)N([C@@H](C)CO)C[C@@H]1C | · | · | 104.7* |
| 22 | C[C@@H]1CCCCO[C@@H](CN(C)C(=O)c2ccccc2)[C@H](C)CN([C@H](C)CO)C(=O)c2cc(NS(=O)(=O)c3ccc(Cl)cc3)ccc2O1 | · | · | -2.4 |
| 23 | C[C@@H]1CN([C@@H](C)CO)C(=O)c2c(c3ccccc3n2C)-c2ccccc2CO[C@H]1CN(C)Cc1ccc(C(=O)O)cc1 | · | · | · |
| 24 | CCN(CC)CC#CCC(O)(c1ccccc1)C1CCCC1 (configuration not stated) | -0.7 | 9.9 | -2.1 |

| # | C2C12 statin | Yeast UUG start-1 | Yeast UUG start-2 |
| --- | --- | --- | --- |
| 17 | 35.7 | 4.4 | · |
| 18 | 102.8*! | -7.8 | · |
| 19 | 91.0* | -5.6 | · |
| 20 | -21.2 | 0.7 | · |
| 21 | -16.2 | 28.5 | · |
| 22 | · | 7.9 | · |
| 23 | · | 0.2 | · |
| 24 | -3.1 | -12.7 | · |

An excerpt from above in order of the Rtt109 HAT inh value, largest number first:
| cpd | Molecule | CDK5 p35 inh | Rtt109 HAT inh | Yeast UUG start-1 | Yeast UUG start-2 |
| --- | --- | --- | --- | --- | --- |
| 15 | C[C@]12CC[C@@H]3c4cc(O)c(O)cc4CC[C@H]3[C@@H]1CC[C@@H]2O | -0.4 | 122.5* | -8.9 | · |
| 7 | O=C(CCn1c(SCC(=O)NCc2ccco2)nc2ccccc2c1=O)NCCc1ccccc1 | 1.4 | 0.3 | -14.8 | · |
| 10 | Cn1c(=O)c2c(nc(SCCN3CCOCC3)n2Cc2ccccc2Cl)n(C)c1=O | -0.4 | -5.5 | 12.4 | · |

(continued)
| # | molecule | CDK5 p35 inh | Rtt109 HAT inh | Cneo AK release |
| --- | --- | --- | --- | --- |
| 25 | CCN(CC)CC#CC(O)(c1ccccc1)c1ccccc1 | 0.5 | -0.2 | · |
| 26 | CCN(CC)CC#CCC(OC)(c1ccccc1)c1ccccc1 | 0.4 | -0.9 | · |
| 27 | COc1ccc(NC(=O)N(C)C[C@@H]2Oc3ccc(NS(=O)(=O)c4c(C)noc4C)cc3C(=O)N([C@H](C)CO)C[C@H]2C)cc1 | · | · | -1.6 |
| 28 | O=C(Nc1ccccc1C(F)(F)F)c1ccsc1 | 0.3 | -5.8 | 5.2 |
| 29 | O=C(NNc1ccccc1C(F)(F)F)c1sccc1Br | 0.1 | -10.6 | 0.1 |
| 30 | COc1ccc(OCc2nnc(SCC(=O)NC3CC3)n2C)cc1 | -0.7 | 5.3 | 2.5 |
| 31 | COc1ccc(C(=O)NCc2nnc(SCC(=O)NC3CCCCC3)n2C)cc1 | -0.6 | -4.2 | -1.7 |
| 32 | CC(C)c1cn(CC[C@@H]2CC[C@H](N)[C@@H](CO)O2)nn1 | · | · | -0.1 |

| # | C2C12 statin | Yeast UUG start-1 | Yeast UUG start-2 |
| --- | --- | --- | --- |
| 25 | · | · | 15.5 |
| 26 | · | · | 4.4 |
| 27 | 20.4 | -5.2 | · |
| 28 | 4.5 | 4.9 | · |
| 29 | 5.3 | active | -4.3 |
| 30 | -2.5 | -13.5 | · |
| 31 | -5.7 | 348.9* | -5.9 |
| 32 | -9.3 | 193.5* | i |

Continuation:
| # | molecule | CDK5 p35 inh | Rtt109 HAT inh | Cneo AK release |
| --- | --- | --- | --- | --- |
| 33 | COCc1cn(CC[C@H]2CC[C@@H](NC(=O)CCN3CCCCC3)[C@H](CO)O2)nn1 | · | · | 0.4 |
| 34 | COCc1cn(CC[C@@H]2CC[C@H](NC(=O)CCN3CCCCC3)[C@@H](CO)O2)nn1 | · | · | -3.4 |
| 35 | CN(C)CC(=O)N[C@H]1CC[C@H](CCn2cc(CN(C)C)nn2)O[C@H]1CO | · | · | 2.4 |
| 36 | CCCNC(=O)N[C@@H]1CC[C@@H](CCn2cc(C3CC3)nn2)O[C@H]1CO | · | · | -0.9 |
| 37 | CCCNC(=O)N[C@H]1CC[C@H](CCn2cc(C3CC3)nn2)O[C@@H]1CO | · | · | 54.4 |
| 38 | COc1ccc(S(=O)(=O)Nc2ccc3c(c2)C(=O)N([C@@H](C)CO)C[C@@H](C)[C@@H](CN(C)CC2CCCCC2)OCCCC[C@@H](C)O3)cc1 | · | · | -4.6 |
| 39 | O=S(=O)(NC1=NCCCCC1)c1ccccc1Cl | -0.1 | 5.9 | -1.1 |
| 40 | Cc1ccccc1S(=O)(=O)NC1=NCCCCC1 | -0.5 | -0.6 | · |

| # | C2C12 statin | Yeast UUG start-1 | Yeast UUG start-2 |
| --- | --- | --- | --- |
| 33 | 6.1 | -9.3 | · |
| 34 | -0.9 | 39.3* | i |
| 35 | 3.1 | 190.7* | i |
| 36 | 2.6 | 3.9 | · |
| 37 | -3.4 | 145.2* | i |
| 38 | · | 47.6 | · |
| 39 | -0.2 | 446.5* | -2.4 |
| 40 | -5.7 | · | · |

New compounds follow
| # | molecule | CDK5 p35 inh | Rtt109 HAT inh | Cneo AK release |
| --- | --- | --- | --- | --- |
| 41 | Cc1c(Cl)cccc1N1C(=O)CC(NNC(=O)c2cccs2)C1=O (configuration not stated) | 0.8 | 9.2 | -0.6 |
| 42 | Cc1c(Cl)cccc1N1C(=O)CC(NNC(=O)c2cccnc2)C1=O (configuration not stated) | 1.5 | -2.5 | 2.4 |
| 43 | CCN(CCCNc1cc2c(c(N)c1S(=O)(=O)O)C(=O)c1ccccc1C2=O)c1ccccc1 | · | · | -2.1 |
| 44 | COc1ccc2oc(C(=O)OCC(=O)NCc3ccc(OC)c(OC)c3)c(C)c2c1 | 0.4 | -4.3 | · |

| # | C2C12 statin | Yeast UUG start-1 | Yeast UUG start-2 |
| --- | --- | --- | --- |
| 41 | -0.2 | 646.5* | -7.5 |
| 42 | · | -34.6 | · |
| 43 | · | 134.7* | -20.5 |
| 44 | 8.3 | -3.2 | 6.2 |
